In patent US20190112393 (published 2019):

T1: human FcγRIa (human, UniProt P12314)
T1 chain: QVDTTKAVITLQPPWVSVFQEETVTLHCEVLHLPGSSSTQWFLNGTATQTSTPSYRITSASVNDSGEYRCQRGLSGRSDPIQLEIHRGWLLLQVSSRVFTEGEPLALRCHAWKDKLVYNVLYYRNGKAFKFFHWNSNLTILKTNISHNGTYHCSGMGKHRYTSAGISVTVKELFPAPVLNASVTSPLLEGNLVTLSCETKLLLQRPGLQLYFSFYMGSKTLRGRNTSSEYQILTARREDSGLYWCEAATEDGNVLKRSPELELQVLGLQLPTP

B1: BP542 (antibody)
chain 1: QVQLQESGPGLVKPSETLSLTCAVSGHSISHDHAWSWVRQPPGEGLEWIGFISYSGITNYNPSLQGRVTISRDNSKNTLYLQMNSLRAEDTAVYYCARSLARTTAMDYWGEGTLVTVSSASTKGPSVFPLAPSSKSTSGGTAALGCLVKDYFPEPVTVSWNSGALTSGVHTFPAVLQSSGLYSLSSVVTVPSSSLGTQTYICNVNHKPSNTKVDKKVEPKSCDKTHTCPPCPAPDLLGDDSVFLFPPKPKDTLMISRTPEVTCVVVDVSDEDGEVKFNWYVDGVEVHNAKTKPREEQFNSTYRVVSVLTVLHQDWLNGKEYKCKVSNKALPRPIEKTISKAKGQPREPQVYTLPPSRDELTKNQVSLTCLVKGFYPSDIAVEWESNGQPENNYKTTPPVLDSDGSFFLYSKLTVDKSRWQQGNVFSCSVMHEALHNHYTQESLSLSP
chain 2: not shown
B2: BP545 (antibody)
chain 1: QVQLQESGPGLVKPSETLSLTCAVSGHSISHDHAWSWVRQPPGEGLEWIGFISYSGITNYNPSLQGRVTISRDNSKNTLYLQMNSLRAEDTAVYYCARSLARTTAMDYWGEGTLVTVSSASTKGPSVFPLAPSSKSTSGGTAALGCLVKDYFPEPVTVSWNSGALTSGVHTFPAVLQSSGLYSLSSVVTVPSSSLGTQTYICNVNHKPSNTKVDKKVEPKSCDKTHTCPPCPAPDLLGDDSVFLFPPKPKDTLMISRTPEVTCVVVDVSDEDGEVKFNWYVDGVEVHNAKTKPREEQDNSTYRVVSVLTVLHQDWLNGKEYKCKVSNKALPRPIEKTISKAKGQPREPQVYTLPPSREELTKNQVSLTCLVKGFYPSDIAVEWESNGQPENNYKTTPPVLDSDGSFFLYSKLTVDKSRWQQGNVFSCSVMHEALHNHYTQESLSLSP
chain 2: not shown

Biological target: T1, human FcγRIa
Assay: SPR

| Kd [nM] | Binder |
| --- | --- |
| 13 | B1 |
| 9.9 | B2 |
